The chains behind the UniProt entries cited, without tags or fusion partners. Where a name states a change or a piece, a line headed by the entry shows the natural chain unless it says otherwise.
UniProt O60603: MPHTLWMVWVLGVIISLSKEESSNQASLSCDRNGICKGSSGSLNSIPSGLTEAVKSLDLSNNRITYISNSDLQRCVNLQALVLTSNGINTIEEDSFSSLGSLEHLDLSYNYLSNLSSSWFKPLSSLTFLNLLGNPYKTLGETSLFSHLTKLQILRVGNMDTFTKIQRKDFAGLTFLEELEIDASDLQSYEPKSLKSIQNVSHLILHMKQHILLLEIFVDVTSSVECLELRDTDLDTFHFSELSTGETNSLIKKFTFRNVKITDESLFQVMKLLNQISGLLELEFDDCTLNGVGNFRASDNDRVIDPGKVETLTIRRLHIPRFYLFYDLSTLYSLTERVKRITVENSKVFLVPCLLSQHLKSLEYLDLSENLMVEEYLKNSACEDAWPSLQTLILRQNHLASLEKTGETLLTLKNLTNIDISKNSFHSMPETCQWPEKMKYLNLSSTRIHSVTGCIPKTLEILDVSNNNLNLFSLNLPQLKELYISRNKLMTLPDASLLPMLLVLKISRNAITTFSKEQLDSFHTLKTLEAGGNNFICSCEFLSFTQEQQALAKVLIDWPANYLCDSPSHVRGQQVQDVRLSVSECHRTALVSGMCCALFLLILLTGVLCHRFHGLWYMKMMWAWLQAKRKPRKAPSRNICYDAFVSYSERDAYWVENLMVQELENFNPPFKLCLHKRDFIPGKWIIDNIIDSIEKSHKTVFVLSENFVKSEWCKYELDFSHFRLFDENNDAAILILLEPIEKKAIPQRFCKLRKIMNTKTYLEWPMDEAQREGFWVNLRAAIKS
UniProt Q9Y2C9: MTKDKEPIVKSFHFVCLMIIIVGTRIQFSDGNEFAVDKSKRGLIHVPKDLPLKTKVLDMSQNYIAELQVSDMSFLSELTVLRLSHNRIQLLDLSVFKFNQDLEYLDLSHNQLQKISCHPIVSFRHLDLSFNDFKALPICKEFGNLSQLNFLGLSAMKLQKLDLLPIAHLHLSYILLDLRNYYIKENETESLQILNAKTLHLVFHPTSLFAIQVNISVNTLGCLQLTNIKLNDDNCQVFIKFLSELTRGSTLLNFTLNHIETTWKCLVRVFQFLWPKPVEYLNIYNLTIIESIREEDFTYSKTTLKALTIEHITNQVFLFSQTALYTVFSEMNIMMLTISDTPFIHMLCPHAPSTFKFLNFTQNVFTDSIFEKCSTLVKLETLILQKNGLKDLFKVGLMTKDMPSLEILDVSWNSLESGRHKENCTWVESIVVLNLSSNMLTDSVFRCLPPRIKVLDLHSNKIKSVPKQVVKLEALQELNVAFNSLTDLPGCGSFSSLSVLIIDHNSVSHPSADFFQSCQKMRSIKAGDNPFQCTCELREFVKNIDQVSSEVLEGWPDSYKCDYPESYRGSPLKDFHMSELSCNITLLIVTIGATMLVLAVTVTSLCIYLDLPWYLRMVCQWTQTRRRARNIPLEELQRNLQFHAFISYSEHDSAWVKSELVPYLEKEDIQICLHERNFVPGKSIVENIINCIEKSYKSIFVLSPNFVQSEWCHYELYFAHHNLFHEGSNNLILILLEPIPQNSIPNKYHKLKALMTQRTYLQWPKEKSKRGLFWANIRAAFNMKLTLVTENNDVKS
UniProt O60602, whole entry: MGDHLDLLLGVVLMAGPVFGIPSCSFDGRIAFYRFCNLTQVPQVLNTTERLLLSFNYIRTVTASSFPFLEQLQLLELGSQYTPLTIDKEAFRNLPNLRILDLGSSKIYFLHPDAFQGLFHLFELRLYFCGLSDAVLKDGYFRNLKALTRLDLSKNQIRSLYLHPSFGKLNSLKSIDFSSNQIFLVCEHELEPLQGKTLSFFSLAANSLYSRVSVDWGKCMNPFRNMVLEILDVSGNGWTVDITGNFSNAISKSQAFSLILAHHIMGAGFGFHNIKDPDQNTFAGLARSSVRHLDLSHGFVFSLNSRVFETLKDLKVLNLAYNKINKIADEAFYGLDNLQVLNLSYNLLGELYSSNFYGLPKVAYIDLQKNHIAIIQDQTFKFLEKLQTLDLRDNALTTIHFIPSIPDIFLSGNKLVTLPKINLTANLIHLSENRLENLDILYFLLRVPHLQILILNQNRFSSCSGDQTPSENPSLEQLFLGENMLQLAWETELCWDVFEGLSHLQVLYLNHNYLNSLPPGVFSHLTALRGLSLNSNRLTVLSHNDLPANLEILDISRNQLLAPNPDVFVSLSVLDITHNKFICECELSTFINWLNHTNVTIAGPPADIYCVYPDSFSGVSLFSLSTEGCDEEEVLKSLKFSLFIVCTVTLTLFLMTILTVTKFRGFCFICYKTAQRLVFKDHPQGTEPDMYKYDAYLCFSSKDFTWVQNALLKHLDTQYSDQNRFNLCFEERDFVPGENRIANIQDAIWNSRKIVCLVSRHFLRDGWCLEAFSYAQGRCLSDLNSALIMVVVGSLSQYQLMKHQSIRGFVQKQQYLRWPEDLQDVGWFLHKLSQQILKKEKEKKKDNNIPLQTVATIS
UniProt Q04206, whole entry: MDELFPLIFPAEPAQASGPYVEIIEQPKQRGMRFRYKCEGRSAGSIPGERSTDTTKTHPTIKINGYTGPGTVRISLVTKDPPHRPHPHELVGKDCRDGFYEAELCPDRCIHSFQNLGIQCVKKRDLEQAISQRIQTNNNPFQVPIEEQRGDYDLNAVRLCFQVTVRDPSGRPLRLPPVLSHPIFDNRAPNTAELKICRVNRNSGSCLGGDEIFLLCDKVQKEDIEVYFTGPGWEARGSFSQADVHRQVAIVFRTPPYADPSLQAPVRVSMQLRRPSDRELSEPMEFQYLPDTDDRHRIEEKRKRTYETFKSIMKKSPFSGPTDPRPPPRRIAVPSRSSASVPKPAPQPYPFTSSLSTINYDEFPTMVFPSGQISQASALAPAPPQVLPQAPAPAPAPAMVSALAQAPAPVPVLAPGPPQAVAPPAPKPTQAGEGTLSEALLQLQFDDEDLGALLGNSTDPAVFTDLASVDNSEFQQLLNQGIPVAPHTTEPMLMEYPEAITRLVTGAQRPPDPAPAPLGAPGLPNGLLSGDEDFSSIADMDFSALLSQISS
UniProt Q15399: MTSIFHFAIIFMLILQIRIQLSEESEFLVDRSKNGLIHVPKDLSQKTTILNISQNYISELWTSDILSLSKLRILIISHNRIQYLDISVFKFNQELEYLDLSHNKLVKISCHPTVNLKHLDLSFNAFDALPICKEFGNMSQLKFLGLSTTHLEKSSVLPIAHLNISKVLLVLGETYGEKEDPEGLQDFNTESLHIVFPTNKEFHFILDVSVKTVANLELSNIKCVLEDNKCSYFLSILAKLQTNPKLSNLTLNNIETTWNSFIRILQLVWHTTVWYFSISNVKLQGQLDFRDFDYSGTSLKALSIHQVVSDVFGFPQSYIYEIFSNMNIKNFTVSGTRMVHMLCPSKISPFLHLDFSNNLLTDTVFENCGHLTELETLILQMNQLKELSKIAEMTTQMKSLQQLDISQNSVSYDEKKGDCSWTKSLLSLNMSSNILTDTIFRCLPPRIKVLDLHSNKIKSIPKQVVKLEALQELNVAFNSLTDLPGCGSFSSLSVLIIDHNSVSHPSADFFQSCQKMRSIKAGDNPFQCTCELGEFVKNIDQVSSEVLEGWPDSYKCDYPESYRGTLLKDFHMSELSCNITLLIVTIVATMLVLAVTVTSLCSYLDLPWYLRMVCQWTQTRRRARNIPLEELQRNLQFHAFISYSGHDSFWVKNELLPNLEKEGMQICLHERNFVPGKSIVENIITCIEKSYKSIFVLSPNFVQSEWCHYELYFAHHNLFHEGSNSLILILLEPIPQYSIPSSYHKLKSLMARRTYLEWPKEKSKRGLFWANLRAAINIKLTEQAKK

In ChEMBL document CHEMBL6153139, “Discovery of Novel Isoxazole-Based Small-Molecule Toll-Like Receptor 8 Antagonists” (J Med Chem, 2025):

Tests used:
Assay type in all cases: cell-based
[1] = molecular target: T1, Toll-like receptor 3 (Homo sapiens) (UniProt O15455); experiment: (§1) Antagonist activity at TLR3 in HEK-Blue hTLR3 cells assessed as inhibition of poly(I:C) induced NF-kappaB activation at 10 uM preincubated with compound for 1 hrs followed by poly(I:C) addition and measured after 24 hrs by Quanti-blue reagent based SEAP reporter assay relative to control
T1 sequence (whole entry): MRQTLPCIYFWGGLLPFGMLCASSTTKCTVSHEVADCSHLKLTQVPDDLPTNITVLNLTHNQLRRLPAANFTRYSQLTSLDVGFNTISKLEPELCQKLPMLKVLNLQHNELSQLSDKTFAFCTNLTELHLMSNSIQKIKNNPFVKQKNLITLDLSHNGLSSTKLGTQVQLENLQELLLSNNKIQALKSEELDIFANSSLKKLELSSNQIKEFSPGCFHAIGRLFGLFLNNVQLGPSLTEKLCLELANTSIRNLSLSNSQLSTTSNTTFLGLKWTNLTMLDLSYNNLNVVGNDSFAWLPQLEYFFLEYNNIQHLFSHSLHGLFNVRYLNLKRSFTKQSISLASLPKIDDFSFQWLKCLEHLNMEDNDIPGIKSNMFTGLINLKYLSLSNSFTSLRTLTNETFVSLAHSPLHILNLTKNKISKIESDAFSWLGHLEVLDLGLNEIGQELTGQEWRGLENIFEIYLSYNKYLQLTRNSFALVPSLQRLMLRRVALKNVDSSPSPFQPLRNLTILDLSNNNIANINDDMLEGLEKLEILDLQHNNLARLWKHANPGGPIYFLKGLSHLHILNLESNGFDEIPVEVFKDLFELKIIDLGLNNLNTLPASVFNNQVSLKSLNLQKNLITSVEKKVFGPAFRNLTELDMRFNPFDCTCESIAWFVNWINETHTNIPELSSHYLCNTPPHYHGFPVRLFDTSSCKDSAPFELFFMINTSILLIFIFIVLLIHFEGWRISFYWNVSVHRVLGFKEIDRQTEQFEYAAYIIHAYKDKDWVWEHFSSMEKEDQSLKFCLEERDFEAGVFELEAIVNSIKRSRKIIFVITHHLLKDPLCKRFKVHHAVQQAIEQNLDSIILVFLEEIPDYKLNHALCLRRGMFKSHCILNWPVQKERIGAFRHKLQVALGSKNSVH

TLR2/TLR6 (Homo sapiens) = TLR2/TLR6 (Homo sapiens) (UniProt O60603+Q9Y2C9); experiment: Antagonist activity at TLR2/6 in HEK-Blue hTLR2-TLR6 cells assessed as inhibition of Pam2CSK4 induced NF-kappaB activation at 10 uM preincubated with compound for 1 hrs followed by Pam2CSK4 addition and measured after 24 hrs by Quanti-blue reagent based SEAP reporter assay
[2] = molecular target: Toll-like receptor 5 (Homo sapiens) (UniProt O60602); experiment: as §1, with “TLR5” for “TLR3”, “hTLR5” for “hTLR3”, “Bacillus subtilis flagellin-induced” for “poly(I:C) induced”, “flagellin” for “poly(I:C)”
[3] = molecular target: T2, Toll-like receptor 9 (Homo sapiens) (UniProt Q9NR96); experiment: Antagonist activity at TLR9 in HEK-Blue hTLR9 cells assessed as inhibition of ODN2006-induced NF-kappaB activation at 10 uM preincubated with compound for 1 hrs followed by ODN2006 addition and measured after 24 hrs by Quanti-blue reagent based SEAP reporter assay relative to control
T2 sequence (whole entry): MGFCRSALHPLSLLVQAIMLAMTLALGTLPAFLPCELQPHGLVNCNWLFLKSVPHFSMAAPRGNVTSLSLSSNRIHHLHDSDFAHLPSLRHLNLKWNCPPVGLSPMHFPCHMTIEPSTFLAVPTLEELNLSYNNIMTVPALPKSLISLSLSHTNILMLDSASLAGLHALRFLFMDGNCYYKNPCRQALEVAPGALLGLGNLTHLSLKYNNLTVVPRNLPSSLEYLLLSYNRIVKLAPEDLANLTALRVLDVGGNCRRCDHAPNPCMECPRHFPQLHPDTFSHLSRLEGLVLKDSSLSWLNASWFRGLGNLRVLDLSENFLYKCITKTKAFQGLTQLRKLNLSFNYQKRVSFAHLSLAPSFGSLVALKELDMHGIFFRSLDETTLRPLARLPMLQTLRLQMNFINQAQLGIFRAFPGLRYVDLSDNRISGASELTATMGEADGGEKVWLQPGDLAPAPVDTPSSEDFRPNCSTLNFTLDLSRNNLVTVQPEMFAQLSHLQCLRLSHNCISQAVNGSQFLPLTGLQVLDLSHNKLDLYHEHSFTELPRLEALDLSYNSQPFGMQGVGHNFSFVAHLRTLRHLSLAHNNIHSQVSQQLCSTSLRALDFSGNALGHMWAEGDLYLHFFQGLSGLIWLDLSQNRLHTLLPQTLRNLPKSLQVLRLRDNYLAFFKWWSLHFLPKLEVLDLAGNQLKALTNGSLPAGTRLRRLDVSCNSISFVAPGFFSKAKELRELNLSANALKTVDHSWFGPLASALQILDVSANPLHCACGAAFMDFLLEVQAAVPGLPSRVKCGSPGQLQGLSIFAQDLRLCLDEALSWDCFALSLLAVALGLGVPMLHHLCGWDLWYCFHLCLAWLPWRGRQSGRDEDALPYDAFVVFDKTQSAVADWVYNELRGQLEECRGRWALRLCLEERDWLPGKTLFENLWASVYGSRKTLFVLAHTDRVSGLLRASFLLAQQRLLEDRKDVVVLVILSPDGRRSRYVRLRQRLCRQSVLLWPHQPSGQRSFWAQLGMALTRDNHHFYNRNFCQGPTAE

[4] = molecular target: Transcription factor p65 (Homo sapiens) (UniProt Q04206); experiment: Inhibition of NF-kappaB p65 phosphorylation in TL8-506 induced human THP-1 cells at 10 uM preincubated with compound for 1 hrs followed by TL8-506 addition and measured after 15 mins by Western blot analysis
[5] = molecular target: Toll-like receptor 1/2 (Homo sapiens) (UniProt O60603+Q15399); experiment: Antagonist activity at TLR2/1 in HEK-Blue hTLR2-TLR1 cells assessed as inhibition of Pam3CSK4 induced NF-kappaB activation at 10 uM preincubated with compound for 1 hrs followed by Pam3CSK4 addition and measured after 24 hrs by Quanti-blue reagent based SEAP reporter assay

- Activity [1]: inactive
- Activity (TLR2/TLR6 (Homo sapiens)): inactive
- Activity [2]: inactive
- Activity [3]: inactive
- inhibition [4]: Active
- Activity [5]: inactive
SMILES: CCN1CCC(NC(=O)c2ccc(OCc3c(C)noc3C)c(OC)c2)CC1

Active and inactive are the calls of the source. The calls are words filed in the database; no cut-off is given here.
